Measured values published in US20190160257A1, “METHODS AND SYSTEMS FOR INHIBITING VASCULAR INFLAMMATION” (Mercator MedSystems, Inc., priority 2002, published 2019).

Details: pig, in vivo

Substance: Oregon Green® 488 paclitaxel [OGP]
- longitudinal extension (mean): 27.5 mm
- longitudinal extension (range): 23-32 mm
